This passage reports Kd and half-life results from paper PMC8953856, “α/β-Peptides as Nanomolar Triggers of Lipid Raft-Mediated Endocytosis through GM1 Ganglioside Recognition” (Pharmaceutics, 2022).

A word on the Kd: it is the free concentration of one partner at which half of the binding sites on the other are occupied at equilibrium, for simple one-to-one binding. The term half-life denotes how long it takes for the measured level to halve.

One data set has as its target ganglioside GM1. Put plainly: Isothermal titration calorimetry (ITC) with GM1:DPC 1:5 bicelles. The conditions noted are these: 35 °C, GM1:DPC 1:5 (GM1 300 µM in syringe) injected into 15 µM ligand in cell, pH 7.2 phosphate buffer, one- or two-site fit, experiments repeated twice, read-out: Binding affinities (KD) to ganglioside GM1. As to the method:
Isothermal Titration Calorimetry: ITC was performed using a MicroCal VP-ITC microcalorimeter at 35 °C. The monosialoganglioside GM1 was obtained from Biosynth-Carbosynth (Bratislava, Slovakia, product code: OG03918, C73H131N3O31·xNa, HPLC purity > 95%). The n-dodecylphosphocholine (DPC) was obtained from Avanti (Alabaster, Alabama, product code: 850336, C17H38NO4P, purity > 99%). In individual titrations, 15 µL of solution containing GM1:DPC 1:5 was injected into the ligand solution in the cell from a computer-controlled 300 µL microsyringe at time intervals of 300 s. The GM1:DPC micelle mixture was prepared in the same pH 7.2 phosphate buffer as the ligand in the cell. The concentration of the ligand in the cell was 15 µM. The concentration of GM1 in the syringe was 300 µM. In control experiments, GM1:DPC was titrated into the cell containing buffer without ligand. To rule out lipid clustering, control measurements were performed with pure GM1 in the syringe, which yielded a […], indicating the GM1:DPC interaction in the micelles (Figure S6). No aggregation of the micelles was observed after titration, which rules out any secondary inter-particle effects induced by ligand binding. […] Our finding is in agreement with the literature results that mixed micelles of GM1 and DPC are readily formed. […]

Data set [1] in a line: Protease assay with trypsin. It is filed as in vitro ADME. The conditions noted are these: trypsin (isolated protease) in buffer; 100 mM TRIS–HCl pH 8.0 without CaCl2; peptide 100 mM (so in the source); protease stock 0.5 mg/mL; samples at 2, 6, 25, 60 min; HPLC–MS; < 24 = peak not detected at 2 min, 3% detection limit.
Data set [2] can be described thus: Protease assay with chymotrypsin. The format is in vitro ADME. The conditions noted are these: chymotrypsin (isolated protease) in buffer; 100 mM TRIS–HCl pH 8.0 with 10 mM CaCl2; peptide 100 mM (so in the source); 50 mL of 0.5 mg/mL chymotrypsin stock to 500 mL peptide solution (so in the source); samples at 2, 6, 25, 60 min; HPLC–MS; < 24 = peak not detected at 2 min, 3% detection limit. As to the method:
Protease assays: Peptides were dissolved in 100 mM TRIS–HCl buffer (pH 8.0) containing 10 mM CaCl2 at 100 mM concentration. Chymotrypsin (Sigma-Aldrich, Budapest, Hungary) stock solution was 0.5 mg/mL in the same buffer. A total […] peptide solution was measured in a reaction vessel and […] protease stock was added. Samples of […] were taken after 2, 6, 25 and 60 min. The samples were diluted into […] 5% TFA aliquots. The samples were then injected into HPLC–MS using a Phenomenex C18-XB Peptide column (250 × 4.6 mm, […]).

The structures appear in SMILES notation.

Regarding `NCCCC[C@H](NC(=O)[C@H](Cc1ccc(O)cc1)NC(=O)[C@@H](N)Cc1c[nH]c2ccccc12)C(=O)N[C@@H](Cc1ccc(O)cc1)C(=O)N[C@@H](Cc1c[nH]c2ccccc12)C(N)=O` [WYKYW], on ganglioside GM1, the Kd is 23.8 nM. For the same compound, the half-life in data set [1] and in data set [2] was under 24 s each time.
